Here are results for four molecules from patent US20060211002A1, “Antibiotic susceptibility and virulence factor detection in Pseudomonas aeruginosa” (priority 2005, published 2006).

The test system of the experiment is 60 clinical P. aeruginosa isolates. On the set-up: species or system Pseudomonas aeruginosa. To be noted: predicted from mutations and resistance genes found by array in 60 isolates.
In the case of `CC(C)(O/N=C(\C(=O)N[C@@H]1C(=O)N2C(C(=O)[O-])=C(C[n+]3ccccc3)CS[C@H]12)c1csc(N)n1)C(=O)O` [Ceftazidim, ceftazidime], the “Cumulative resistance predicttion deduced from array” value is 40%.

`NCC[C@H](O)C(=O)N[C@@H]1C[C@H](N)[C@@H](O[C@H]2O[C@H](CN)[C@@H](O)[C@H](O)[C@H]2O)[C@H](O)[C@H]1O[C@H]1O[C@H](CO)[C@@H](O)[C@H](N)[C@H]1O` [Amikacin, amikacin]: the “Cumulative resistance predicttion deduced from array” value is on record as 20%.

In the case of `C[C@@H](O)[C@H]1C(=O)N2C(C(=O)O)=C(SCCN=CN)C[C@H]12` [Imipenem, imipenem], the “Cumulative resistance predicttion deduced from array” value is given as 50%.

`NC[C@H]1O[C@H](O[C@H]2[C@H](O)[C@@H](O[C@H]3O[C@H](CO)[C@@H](O)[C@H](N)[C@H]3O)[C@H](N)C[C@@H]2N)[C@H](N)C[C@@H]1O` [Tobramycin, tobramycin]: the “Cumulative resistance predicttion deduced from array” value is on record as 17%.
